Test results published in US20080125475A1 (priority 2006, published 2008).

Assays:
[1] = tested on: spinalized rats; conditions: rat, in vivo
[2] = tested on: Sprague-Dawley rats; assay: animal or person; format: in vivo; conditions: Rattus norvegicus, iv, read-out: ED50 acute
[3] = tested on: Sprague-Dawley rats; conditions: rat, in vivo, iv
[4] = tested on: Sprague-Dawley rats; assay: animal or person; conditions: Rattus norvegicus, iv, read-out: ED50 chronic

Row | SMILES | antinociceptive action after inflammation compared with before [1] | ED50 [2] [mg/kg] | Enhancement of action factor [3] [x] | ED50 [4] [mg/kg]
1 | CN1CC[C@]23c4c5ccc(O)c4O[C@H]2[C@@H](O)C=C[C@H]3[C@H]1C5 [Compound B3, morphine] | tends to be weaker after inflammation; also recorded: does not change after inflammation |  |  | 
2 | CO[C@@]12CCC3(C[C@@H]1C(C)(O)C(C)(C)C)[C@H]1Cc4ccc(O)c5c4[C@@]3(CCN1CC1CC1)C2O5 (stereo partly shown) [Compound B5, buprenorphine] |  | 0.017 | 0.3 | 0.055

Entries after “also recorded” stand apart in the source; their conditions may differ. Like-named read-outs stand apart in the source and are kept apart here.
